Values joined by “and” are separate entries in the source; they are usually repeats but may differ in a detail not shown here. Equal values may be shown once.
Assays:
Format in all cases: cell-based
A549 cells = test: Cytotoxicity (cell viability); conditions: Homo sapiens; A549 (EGFR +, MET +), Table 10
Protocol: Evaluation was performed using GraphPad Prism version 6.05.
(§1) Compounds were added using Tecan D300e liquid. […] Synergy scores were calculated using LOEWE synergy model.

HCC-1954 cells = test: Dose-matrix combination assay (synergy score, Loewe model)
Protocol: as §1
The screening of synergistic drug combinations can be accomplished by performing a dose-matrix assay. Therefore, two drugs are serial diluted and mixed at every dose level, yielding a dose-matrix. The drug combination can be additive if the effects of the combination are identical to the added effects of the single agents. However, the effects of the combination might also be stronger than the activity of the single agents. This scenario is termed synergy, whereas weaker combination effects compared to the single agents are termed antagonism. […]
The screening was conducted by serial diluting the duocarmycin derivative DUBA (10) and the DDR inhibitors. […] The cell viability was measured after 6 d of treatment using the CellTiter-Glo assay kit. […] The quantification of the combination effects, however, was performed by calculating synergy scores. […]
The scattering of S was determined in a sham control experiment to define a cutoff for classifying a combination as truly synergistic or antagonistic. Thus seven different compounds were combined with itself on four different cell lines and the three-σ confidence interval was calculated around the mean of the measurement. […]

NCI-N87 cells = test: as above
Protocol: as §1
The screening of synergistic drug combinations can be accomplished by performing a dose-matrix assay. Therefore, two drugs are serial diluted and mixed at every dose level, yielding a dose-matrix. The drug combination can be additive if the effects of the combination are identical to the added effects of the single agents. However, the effects of the combination might also be stronger than the activity of the single agents. This scenario is termed synergy, whereas weaker combination effects compared to the single agents are termed antagonism. A dose-matrix assay is depicted schematically in FIG. 2 which illustrates the outcomes of a dose-matrix assay: additivity, antagonism and synergy.

Row | SMILES | IC50 (A549 cells) [nM] | Synergy score S (HCC-1954 cells) | Synergy score S (NCI-N87 cells)
1 | COC(=O)c1cc2c3c(cc(O)c2[nH]1)N(C(=O)c1cc2cc(OC)c(OC)c(OC)c2[nH]1)C[C@H]3CCl [compound 13] | 0.33 ± 0.07 | – | –
2 | C[C@@H]1COCCN1c1cc(-c2ccnn2C)c2ccnc(-c3ccn[nH]3)c2n1 [BAY1895344] | – | 13.1±1.0 and 12.8±0.5 | 7.6 ± 0.4 and 7.0 ± 0.2
